From patent US20180325914A1, “INCREASING STORAGE OF VITAMIN A, VITAMIN D AND/OR LIPIDS” (Salk Institute for Biological Studies, priority 2014, published 2018)

Test system: primary HSCs

## Cc1sc2c(c1C)C(c1ccc(Cl)cc1)=N[C@@H](CC(=O)OC(C)(C)C)c1nnc(C)n1-2 [JQ1, (S)-tert-butyl 2-(4-(4-chlorophenyl)-2,3,9-trimethyl-6H-thieno[3,2-f][1,2,4]triazolo[4,3-a][1,4]diazepin-6-yl)acetate]
  Rab34 log2(fold_change): −0.2385
  Rab3d log2(fold_change): −0.3572
  Racgap1 log2(fold_change): 0.4694
  Rad51 log2(fold_change): 0.8001
  Rap1gap2 log2(fold_change): −3.0594
  Rarb log2(fold_change): 0.5451
  Rasl11a log2(fold_change): −0.707
  Rasl11b log2(fold_change): −0.6909
  Rasl12 log2(fold_change): −3.9176
  Rbp1 log2(fold_change): 0.875
  Reck log2(fold_change): 0.9921
  Reep5 log2(fold_change): −0.6259
  Rftn1 log2(fold_change): −0.8376
  Rftn2 log2(fold_change): −1.9248
  Rgs4 log2(fold_change): −3.3664
  Rhobtb3 log2(fold_change): −0.3871
  Rhoq log2(fold_change): −0.8314
  Rian log2(fold_change): −0.8929
  Rnft1 log2(fold_change): −0.32
  Ror1 log2(fold_change): −0.5141
  Rprd1a log2(fold_change): −0.3768
  Rrm2 log2(fold_change): 0.9922
  Rtn1 log2(fold_change): 2.23
  Runx2 log2(fold_change): −0.5139
  Ryk log2(fold_change): −0.3459
  S100a1 log2(fold_change): −0.246
  S100a4 log2(fold_change): 1.143
  S100a6 log2(fold_change): 0.613
  Saa3 log2(fold_change): −4.0632
  Samd4 log2(fold_change): −0.6143
  Sardh log2(fold_change): −1.7257
  Sat2 log2(fold_change): −0.4861
  Sbsn log2(fold_change): 1.031
  Scara3 log2(fold_change): 1.074
  Scd1 log2(fold_change): −0.6976
  Sce1 log2(fold_change): −2.2691
  Scrn1 log2(fold_change): 0.5985
  Sdpr log2(fold_change): 1.788
  Sec23a log2(fold_change): −0.8833
  Selm log2(fold_change): −0.4019
  Sepw1 log2(fold_change): −0.5369
  Sepx1 log2(fold_change): −0.417
  Serinc2 log2(fold_change): −2.5514
  Serpinb9b log2(fold_change): −3.7131
  Serpine2 log2(fold_change): −2.1235
  Serpinf1 log2(fold_change): −2.5721
  Serping1 log2(fold_change): −0.8115
  Serpinh1 log2(fold_change): −0.337
  Serpini1 log2(fold_change): 1.3473
  Sertad4 log2(fold_change): −3.121
  Sesn3 log2(fold_change): 1.596
  Setbp1 log2(fold_change): −0.8714
  Setd7 log2(fold_change): −0.2421
  Sfrp1 log2(fold_change): −0.5017
  Sgce log2(fold_change): −2.0094
  Sh3gl3 log2(fold_change): −2.4548
  Sh3kbp1 log2(fold_change): −1.8439
  Shcbp1 log2(fold_change): 0.8877
  Shisa2 log2(fold_change): 1.027
  Shisa3 log2(fold_change): −1.5942
  Shroom3 log2(fold_change): −0.8485
  Sipa1l1 log2(fold_change): 0.6042
  Skp2 log2(fold_change): −0.4125
  Slc2a8 log2(fold_change): 0.8135
  Slc2a10 log2(fold_change): −2.1952
  Slc7a6 log2(fold_change): −0.5434
  Slc9a3r1 log2(fold_change): 1.386
  Slc16a3 log2(fold_change): −3.9927
  Slc24a3 log2(fold_change): −0.5644
  Slc35a2 log2(fold_change): −0.3641
  Slc44a2 log2(fold_change): −0.2965
  Slit2 log2(fold_change): 0.6866
  Slit3 log2(fold_change): −0.4421
  Smc2 log2(fold_change): 0.6717
  Smc4 log2(fold_change): 0.62
  Snai1 log2(fold_change): −0.4246
  Snai2 log2(fold_change): 1.38
  Snap47 log2(fold_change): 0.5756
  Snta1 log2(fold_change): −0.3253
  Snurf log2(fold_change): −0.7461
  Snx30 log2(fold_change): −0.4459
  Sorcs2 log2(fold_change): −5.2626
  Spag5 log2(fold_change): 0.9117
  Sparcl1 log2(fold_change): −2.4092
  Spc24 log2(fold_change): 0.4494
  Spc25 log2(fold_change): 1.212
  Speg log2(fold_change): −1.8147
  Spon2 log2(fold_change): −2.8564
  Spp1 log2(fold_change): −2.0575
  Spry1 log2(fold_change): 0.752
  Srgap3 log2(fold_change): −1.7008
  Srpx2 log2(fold_change): −3.7184
  Srpx log2(fold_change): −2.4569
  St5 log2(fold_change): 0.509
  Steap2 log2(fold_change): −0.6515
  Stk39 log2(fold_change): −0.4556
  Stra6 log2(fold_change): −6.3397
  Sulf1 log2(fold_change): −0.4274
  Svep1 log2(fold_change): 2.307
  Syt13 log2(fold_change): −2.6844
  Tacc3 log2(fold_change): 0.5061
  Tbx20 log2(fold_change): 1.389
  Tbxa2r log2(fold_change): −1.9518
  Tcea3 log2(fold_change): −1.5921
  Tcf19 log2(fold_change): 1.669
  Tead3 log2(fold_change): −0.4209
  Tfdp2 log2(fold_change): 0.6479
  Tfpi2 log2(fold_change): −3.0027
  Thbs2 log2(fold_change): −0.8666
  Thbs3 log2(fold_change): −2.4507
  Thy1 log2(fold_change): −3.7357
  Timp1 log2(fold_change): −1.7931
  Timp2 log2(fold_change): 0.9045
  Tinagl1 log2(fold_change): 0.5558
  Tlcd2 log2(fold_change): −0.3733
  Tll1 log2(fold_change): −3.6502
  Tm7sf3 log2(fold_change): −0.4638
  Tmeff1 log2(fold_change): −3.7746
  Tmem9 log2(fold_change): −0.7597
  Tmem14a log2(fold_change): −1.5484
  Tmem38a log2(fold_change): −0.52
  Tmem45a log2(fold_change): −1.6657
  Tmem53 log2(fold_change): 0.6188
  Tmem119 log2(fold_change): −0.2868
  Tmem176a log2(fold_change): −0.5508
  Tmem200a log2(fold_change): −4.1061
  Tmsb10 log2(fold_change): 0.7412
  Tnfsf8 log2(fold_change): −5.8552
  Tnfsf13b log2(fold_change): −3.0126
  Tnfsf15 log2(fold_change): −7.3507
  Tnfsf18 log2(fold_change): −4.6786
  Top2a log2(fold_change): 0.8227
  Tpm1 log2(fold_change): −0.4794
  Tpm2 log2(fold_change): −0.769
  Trf log2(fold_change): −0.3919
  Trim46 log2(fold_change): −1.8231
  Trim59 log2(fold_change): 0.4395
  Trnp1 log2(fold_change): −0.3979
  Tro log2(fold_change): 0.5702
  Trp53inp2 log2(fold_change): 0.4739
  Trpc6 log2(fold_change): −7.4279
  Tsku log2(fold_change): −2.3089
  Tspan2 log2(fold_change): −2.1422
  Tspan6 log2(fold_change): −0.2178
  Ttc13 log2(fold_change): −0.2207
  Ttc19 log2(fold_change): −0.5541
  Tubb2b log2(fold_change): −0.4834
  Tubb4 log2(fold_change): −0.3153
  Twist1 log2(fold_change): 0.605
  Txndc5 log2(fold_change): −0.2232
  Ube2c log2(fold_change): −0.274
  Ufsp2 log2(fold_change): −0.6512
  Uhrf1 log2(fold_change): 0.4265
  Unc119 log2(fold_change): −0.3655
  Upk1b log2(fold_change): 1.6531
  Vash2 log2(fold_change): −2.0211
  Vegfa log2(fold_change): −2.1227
  Vgll3 log2(fold_change): 0.5105
  Wbscr17 log2(fold_change): −2.851
  Wdr6 log2(fold_change): 0.9888
  Wdr35 log2(fold_change): 0.43
  Wee1 log2(fold_change): −0.4044
  Wfs1 log2(fold_change): −0.2641
  Whrn log2(fold_change): −0.5073
  Wisp1 log2(fold_change): −4.0915
  Wisp2 log2(fold_change): −5.8129
  Wnt4 log2(fold_change): −1.9421
  Wnt5a log2(fold_change): −2.1293
  Wnt9a log2(fold_change): −0.3907
  Wnt11 log2(fold_change): −2.9523
  Wt1 log2(fold_change): 0.4796
  Ydjc log2(fold_change): −2.3472
  Ypel5 log2(fold_change): −0.6169
  Zbtb7c log2(fold_change): 0.5911
  Zbtb8b log2(fold_change): −2.1437
  Zfp651 log2(fold_change): −0.6302
  Zfp827 log2(fold_change): −3.4748
  Zmat3 log2(fold_change): −0.5817
  Zranb3 log2(fold_change): −0.829
  Zwilch log2(fold_change): 1.193
  Zyx log2(fold_change): −0.4475
